These results are taken from PubChem BioAssay AID493091 (Sanford-Burnham Center for Chemical Genomics, 2011).

Protein sequences, listed by entry. Tags and fused reporters are not part of them. Residues count along the entry.
UniProt Q9GZU7, 76-261 limits assumed: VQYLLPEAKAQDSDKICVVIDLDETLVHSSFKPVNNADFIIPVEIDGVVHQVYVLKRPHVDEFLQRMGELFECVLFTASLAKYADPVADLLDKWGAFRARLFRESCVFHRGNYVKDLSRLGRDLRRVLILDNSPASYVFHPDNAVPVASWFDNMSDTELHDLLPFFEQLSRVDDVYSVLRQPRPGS

The list shows a part of the results, in another mix than the full data. The source made the active and inactive calls.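 Rule for the calls: active = inhibition above about 50% at 20 µM (limit read from the data); inactive = the rest.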

The target of the assay is Carboxy-terminal domain RNA polymerase II polypeptide A small phosphatase 1 (Homo sapiens) (UniProt Q9GZU7). The assay can be described thus: inhibition of human SCP1 dephosphorylation activity – biochemical, colorimetric, uHTS, primary screen (AID 493091).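 Note: plate controls were DMSO wells with enzyme for no effect and wells lacking enzyme for full effect.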 To be noted: Recombinant Scp1, phosphopeptide, malachite green phosphate absorbance; at 20 µM; active compounds read high.
As usually defined, the inhibition is the change of the read-out against control, counted positive when it falls. For the molecule `CCC(=O)N(c1ccccc1)C1(COC)CCN(CCc2cccs2)CC1`, the inhibition was inactive: -3.18%.

Regarding `CCC(=O)N(c1ccccc1)C1(COC)CCN(CCn2nnn(CC)c2=O)CC1`, the inhibition is inactive: -3.18%.
